Inhibition data for 60 compounds are collected here from PubChem BioAssay AID651582 (Sanford-Burnham Center for Chemical Genomics, 2012).

Each structure is given as a SMILES string. The list shows a part of the results, in another mix than the full data. Active and inactive are the calls of the source.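 How the source made its calls: active means pattern-corrected inhibition of lipid staining of at least 50% with the nuclear-stain viability signal not falling by more than 50%; inactive means the rest, inconclusive results apart.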

This assay is described as follows: inhibitors of triacylglycerol accumulation, primary screen, cell-based, uHTS, fluorescence, H9c2 (AID 651582).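 Further: 0% = DMSO wells and 100% = triacsin C control wells.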 As to conditions: H9c2 cells, Nile Red lipid (TAG) fluorescence; at 12.5 µM; hits give high values; cells loaded with 200 µM oleic acid.
Usually inhibition stands for the change of the read-out against control, counted positive when it falls. Regarding `O=[N+]([O-])c1cc([N+](=O)[O-])c(Nc2cccnc2)c([N+](=O)[O-])c1`, the inhibition was inactive: 7.89%.
On to `O=[As](O)(c1ccc(O)cc1)c1ccccc1O`, for which the inhibition is inactive: 2.39%.
Consider `COc1cc(C(=O)NCC2(N3CCOCC3)CCCCC2)ccc1OCC(C)C`, for which the inhibition is inactive: 3.65%.
Consider `O=[N+]([O-])c1ccc(-c2cc([N+](=O)[O-])c(O)c([N+](=O)[O-])c2)cc1`, for which the inhibition was inactive: 1.09%.
In the case of `Cc1cccc(C)c1OP(C)(N)=O` (stereo not given), the inhibition was inactive: 9.31%.
With `Cc1ccc2nc3c(c(C)c2c1)CC(C(Cl)Cl)S3` (stereo not given), the inhibition is inactive: -5.17%.
Then `O=[N+]([O-])c1ccc2c(c1)C=Nc1ccccc1O2`, with inactive: -8.75%.
For `ClCCSc1nnc(-c2cccnc2)o1`, the inhibition was inactive: 22.1%.
As to `CC(C)c1ccc(OP(=O)(Nc2ccccn2)Oc2ccccc2F)cc1` (stereo not given), the inhibition is inactive: -37.9%.
Turning to `Cc1ccc(NP(C)(=O)Oc2ccccc2)c(C)c1` (stereo not given), the inhibition was inactive: -93.7%.
As to `COC(=O)C1(C)COP(=O)(N2CCCCCC2)OC1` (stereo not given), the inhibition was inactive: -3.22%.
As for `O=C(OC1CN2CCC1CC2)c1cccc2[nH]cnc12` (stereo not given), the inhibition was inactive: -0.447%.
For `CCN(CC)C(=S)SC(NC=O)C(Cl)(Cl)Cl` (stereo not given), the inhibition is inactive: 94.4%.
Regarding `COc1ccccc1OP(C)(=O)Nc1cc(Cl)ccc1C` (stereo not given), the inhibition was inactive: -51.4%.
`O=[N+]([O-])c1cc([N+](=O)[O-])c(-c2ccn[nH]2)s1`: the inhibition was inactive: 1.1%.
For the compound `COc1ccc(OP(C)(=O)Nc2cccc(F)c2)cc1` (stereo not given), the inhibition was inactive: -21.6%.
Turning to `Cc1cc(C)cc(OP(C)(N)=O)c1` (stereo not given), the inhibition was inactive: 0.187%.
Then `Cc1c2c(nc3ccccc13)SC(C(Cl)Cl)C2` (stereo not given), with inactive: -9.97%; and `O=C(OC1CN2CCC1CC2)C12CC3CC(CC(C3)C1)C2` (stereo not given), with inactive: 11.7%.
Turning to `CCN(CC)CCCOC(=O)C(O)(c1ccccc1)c1ccccc1`, the inhibition was inactive: 4.35%.
Then `O=P1(N(CCCl)CCCl)OCCCN1CCCl` (stereo not given), with inactive: -12.6%; and `O=P1(N(CCCl)CCCl)Nc2ccccc2N1`, with inactive: 9.4%.
With `COc1ccc2nc(NP(=O)(c3ccccc3)c3ccccc3)sc2c1`, the inhibition is inactive: -9.91%.
Turning to `COc1cc(I)ccc1[As](=O)(O)O`, the inhibition is inactive: 8.88%.
As to `O=[N+]([O-])c1cc(Oc2ccc([N+](=O)[O-])cc2C(F)(F)F)cc([N+](=O)[O-])c1`, the inhibition is inactive: 0.838%.
The figure for `COc1ccc(N/C(=N/P(=O)(N2CCOCC2)N2CCOCC2)N2CCOCC2)cc1` is inactive: 5.9%; for `Cc1ccc(Nc2c([N+](=O)[O-])cc([N+](=O)[O-])cc2[N+](=O)[O-])cc1` it is inactive: 6.24%.
Then `CP(=O)(Nc1ccc(SC(F)(F)F)cc1)Oc1ccc(Cl)cc1` (stereo not given), with inactive: -43.1%; and `CP(=O)(Oc1ccccc1)OC(c1ccccc1)C(F)(F)F` (stereo not given), with inactive: -19%; and `CCc1ccc(OP(C)(=O)N2CCN(c3ccc([N+](=O)[O-])cc3)CC2)cc1` (stereo not given), with inactive: -30.2%.
Consider `O=C(COc1ccccc1)OC1CN2CCC1CC2` (stereo not given), for which the inhibition was inactive: -20.6%.
The figure for `CCOP(C)(=S)SCC(=O)NC(C)C(=O)O` (stereo not given) is inactive: 1.51%; for `CSc1ccc(Nc2c([N+](=O)[O-])cc([N+](=O)[O-])cc2[N+](=O)[O-])cc1` it is inactive: -6.33%.
As for `CCOC(=O)c1ccc(NC(=O)C(C)(CCl)SC)cc1` (stereo not given), the inhibition was inactive: 5.34%.
As to `O=[N+]([O-])c1cc([N+](=O)[O-])c(O)c([N+](=O)[O-])c1.c1ccc(Oc2ccncc2)cc1`, the inhibition was inactive: 6.32%.
Turning to `CCOC(=O)Nc1ccc([As](=O)(O)O)c(O)c1`, the inhibition was inactive: 3.05%.
On to `O=C(O)C(=O)c1ccc(N(CCCl)CCCl)cc1.c1ccc(Nc2ccccc2)cc1`, for which the inhibition is inactive: 1.51%.
Take `CC1CCNP(=O)(N(CCCl)CCCl)O1` (stereo not given): the inhibition was inactive: -32.5%.
As for `COP(=O)(OC)N1CC1c1ccccc1` (stereo not given), the inhibition was inactive: -4.19%.
For the compound `CP(=S)(Nn1cnnc1)Oc1ccccc1` (stereo not given), the inhibition is inactive: 7.31%.
For `O=P(Nc1ccccn1)(c1cccc2ccccc12)c1cccc2ccccc12`, the inhibition was inactive: -3.11%.
Consider `Cc1cc(SC(NC=O)C(Cl)(Cl)Cl)ncn1` (stereo not given), for which the inhibition was inactive: 0.977%.
With `COc1ccccc1OP(C)(=O)Nc1ccccc1` (stereo not given), the inhibition is inactive: -11%.
`CC1CCC(C(C)C)C(OP(=O)(Nc2ccccn2)c2ccccc2)C1` (stereo not given): the inhibition was inactive: -11.8%.
Take `CN(C)C1(CNC(=O)c2ccc(S(C)(=O)=O)cc2)CCCCC1`: the inhibition is inactive: 3.73%.
Consider `CC1=C2N=C(C=C3N=C(C(C)=C4[N-][C@@](C)([C@@H]5N=C1[C@](C)(CCC(=O)NC[C@@H](C)OP(=O)([O-])O[C@H]1[C@@H](O)[C@@H](n6cnc7cc(C)c(C)cc76)O[C@@H]1CO)[C@H]5CC(N)=O)[C@@](C)(CC(N)=O)[C@@H]4CCC(N)=O)[C@@](C)(CC(N)=O)[C@@H]3CCC(N)=O)C(C)(C)[C@@H]2CCC(N)=O.[C-]#N.[Co+3]`, for which the inhibition was inactive: -0.839%.
Consider `CCOC(=O)C(CC)C1=NC(C)(C)Cc2ccccc21.O=[N+]([O-])c1cc([N+](=O)[O-])c(O)c([N+](=O)[O-])c1` (stereo not given), for which the inhibition was inactive: 0.396%.
With `O=C(/C=C/c1ccccc1)OC1CN2CCC1CC2` (stereo not given), the inhibition is inactive: 8.73%.
As for `CCCC1OP(=O)(Nc2ccccc2)OCC1CC` (stereo not given), the inhibition is inactive: -7.21%.
On to `O=P1(Nc2ncccn2)COc2ccccc2OC1`, for which the inhibition was inactive: 6.19%.
The figure for `COc1ccccc1OP(C)(=O)Nc1c(C)cccc1C` (stereo not given) is inactive: -45%; for `CN1CCCCC1COC(=O)C1(O)c2ccccc2CCc2ccccc21` (stereo not given) it is inactive: 17.2%; for `Nc1cccc([As](=O)(O)c2ccccc2)c1` it is inactive: -3.55%.
Take `CCCOc1ccc(NP(C)(=O)Oc2ccc(Cl)cc2)cc1` (stereo not given): the inhibition was inactive: -45.3%.
As to `O=P1(Nc2ccc(Br)cn2)COc2ccccc2OC1`, the inhibition was inactive: -6.4%.
As for `NS(=O)(=O)c1cccc(NC(=O)COC(=O)C(O)(c2ccccc2)c2ccccc2)c1`, the inhibition is inactive: 7.55%.
For the compound `Cc1ccc(OCC(=O)OC2CN3CCC2CC3)cc1` (stereo not given), the inhibition is inactive: 0.78%.
As for `O=C(O)C(O)c1ccc(N(CCCl)CCCl)cc1.c1ccncc1` (stereo not given), the inhibition was inactive: 9.31%.
Then `O=P1(Nc2ccccn2)COc2ccccc2OC1`, with inactive: -10.2%.
On to `O=[N+]([O-])c1cc([N+](=O)[O-])c(-n2nnc3ccccc32)c([N+](=O)[O-])c1`, for which the inhibition is inactive: -1.57%.
